1 molecule from article PMC10747034, “Medicines for Malaria Venture Pandemic Box In Vitro Screening Identifies Compounds Highly Active against the Tachyzoite Stage of Toxoplasma gondii” (Tropical Medicine and Infectious Disease, 2023) can be followed below.

“And” between values parts separate entries of the source, which are not always exact repeats. Identical values can stand only once. Like-named read-outs stand apart in the source and are kept apart here.

The subject of assay [1] is Toxoplasma gondii tachyzoites of RH strain. Description: Plaque assay (7 days) in NHDF monolayers infected with T. gondii. Format: cell-based. As for the experimental part: After NHDF reached confluency, each well was replaced with fresh medium containing one compound at a concentration of 1 µM, and then infected with 1000 newly egressed tachyzoites from RH strain [29]. Screening at 1 μM is recommended by MMV. As a control, infected cells were incubated with complete medium and 0.01% DMSO [29]. The plates were then kept in an incubator at 37 °C in a humid atmosphere with 5% CO2 for seven days. After this time, cultures were fixed with 70% ethanol and stained with crystal violet to observe the plates.
For that, 12-well plates containing a monolayer of NHDF were infected with 600 tachyzoites of the RH strain of T. gondii and treated with different concentrations for seven days. IC50s of compounds were calculated using GraphPad Prism 8.0 software.
Data were analyzed using GraphPad Prim 8.0 software. IC50 and CC50 calculations were performed by fitting the values of proliferation/viability in percentage to a non-linear curve followed by dose–response inhibition analysis through log(inhibitor) vs. normalized response.

The subject of assay [2] is NHDF cells. Nature of the assay: Cytotoxicity assay (MTS, 7 days). Format: cell-based, Human. As for the experimental part:
For that, 96-well tissue plates containing NHDF cells were treated with different concentrations of compounds up to 10 µM for seven days. Control cells were incubated with 0.5% DMSO. At the end of the treatment, cell viability was then analyzed through the colorimetric method of MTS (Promega, Madison, WI, USA). […] Data were analyzed using GraphPad Prim 8.0 software. IC50 and CC50 calculations were performed by fitting the values of proliferation/viability in percentage to a non-linear curve followed by dose–response inhibition analysis through log(inhibitor) vs. normalized response.

With `CCC[C@@H]1C[C@@H](C(=O)N[C@@H]([C@H]2O[C@H](SC)[C@H](O)[C@@H](O)[C@H]2O)[C@H](C)Cl)N(C)C1` [Clindamycin], the IC50 in assay [1] (read-out: IC50 (nM) in Tachyzoites of RH Strain (7 Days), 7 days of treatment, two independent experiments) was < 5 nM and 3.3 nM; in assay [1] (read-out: IC50 (nM) in Tachyzoites of RH Strain (7 Days), 7 days of treatment, two independent experiments, listed as clindamycin) it was below 10 nM. Besides, the “SI (Selectivity Index, CC50 NHDF cells/IC50 T. gondii)” value in assay [2] is listed as 2679.
